## Antibody variant affinities, Ab-14 light chain, assay B

Reference: Li et al. 2023, doi:10.1038/s41467-023-39022-2. File: FLAb, binding data.

Target peptide (SARS-CoV-2 spike, HR2 region): PDVDLGDISGINAS

Ab-14 is the parent antibody, in scFv form: VH, then the linker GGGGSGGGGSGGGGS, then VL. The heavy chain is unchanged in all variants.
VH: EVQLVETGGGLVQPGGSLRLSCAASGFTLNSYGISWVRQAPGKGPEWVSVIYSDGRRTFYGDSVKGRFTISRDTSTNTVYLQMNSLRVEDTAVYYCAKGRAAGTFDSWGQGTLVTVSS
VL: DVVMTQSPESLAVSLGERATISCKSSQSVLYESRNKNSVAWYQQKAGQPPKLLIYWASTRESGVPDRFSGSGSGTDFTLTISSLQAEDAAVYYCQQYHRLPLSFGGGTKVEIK

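Phage display of a naive human antibody library on the peptide gave the parent. This is the validation round: designs drawn from the data on random variants, tested in the same kind of assay. Their group label is 14L_Ctrl (Ctrl: baseline library sampled from a position-specific scoring matrix, with some repeated check sequences). Affinity was read by AlphaSeq, a pooled yeast mating assay with surface-displayed partners. After mating in shaken culture at 30 °C for 16 h, diploids were selected and their barcode pairs sequenced. Scores were corrected for input abundance and mapped to Kd with protein pairs of known affinity run in the same pool. There are six technical replicates.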

Substitutions are numbered in sequence along the VL above, starting at 1 (not Kabat).
Values are log10 of the apparent Kd in nM; lower means stronger binding.
"nd" means that the variant was in the library but no mating with the target was seen in that replicate; the authors take this as a sign of poor binding, and no number exists.
Values of this round are not directly comparable with the first-round values of the same sequences.
Background: pairings of all light chain designs with three empty control strains gave a value in 4% of cases (median 2.64, 5th percentile 1.59). Values in that range, when seen in few replicates, are hard to tell from nonspecific mating. For each scFv, signals with the empty controls are counted beside the result, with their mean in brackets.
The authors averaged sequences with at least three values out of six and counted those with two or fewer as poor binders.
Of ten entries with the parent sequence, four were seen in most replicates (averages 0.34 to 2.37), three in one and three in none, so single entries are noisy.

| changes | log10 Kd, replicates | signal with controls |
|---|---|---|
| S25V/E32Q/S62M | 1.67 1.62 1.22 1.67 1.85 2.96 | 0 of 18 |
| Q27P/R34N/N35P/W56Q/T59Q | 0.07 -0.04 -0.05 -0.07 -0.12 -0.03 | 2 of 18 (2.38) |
| S25W/S26A/R99M | 2.12 nd nd nd nd 2.28 | 0 of 18 |
| S25C/Q27S/Y31I/E32N/K36V/L102C | 2.57 nd nd nd nd nd | 0 of 18 |
| S33G/T59S | nd nd 2.63 nd 3.19 2.06 | 0 of 18 |
| V29C/L102C/S103T | nd nd nd nd nd nd | 1 of 18 (1.84) |
| Q27D/V29P/H98M | 1.46 1.15 0.95 1.39 1.13 1.66 | 1 of 18 (3.01) |
| N35D/W56E | 0.39 0.38 0.22 0.24 0.24 0.33 | 2 of 18 (3.28) |
| S28P/W56E | 0.50 0.60 0.60 0.29 0.53 0.65 | 2 of 18 (3.07) |
| L30A/Y97C | 1.57 1.78 2.39 2.17 2.20 2.19 | 2 of 18 (2.95) |
| S25V/Y97G | nd nd nd nd 2.39 nd | 1 of 18 (1.84) |
| E32M/S33D/Y97M | nd nd nd nd nd nd | 0 of 18 |
| S25I/V29L/S38N/L100M | 0.07 -0.10 0.06 -0.05 -0.22 0.16 | 1 of 18 (2.28) |
| N37H/R99Q/L100V/S103T | nd nd nd nd nd nd | 1 of 18 (2.27) |
| Y31F/H98N/R99S | nd nd nd nd nd nd | 0 of 18 |
| Y31G/P101I | 1.59 1.49 2.29 1.24 1.72 1.59 | 1 of 18 (1.34) |
| Q27G/K36F/V39M/W56R | 1.21 0.77 0.97 1.00 1.13 1.07 | 2 of 18 (2.85) |
| S25V/Y31G/S58D/Q96W/H98M | 1.38 1.35 3.07 1.21 1.66 1.19 | 1 of 18 (1.78) |
| V29D/L30R/K36T | nd 1.00 nd 3.11 2.67 2.63 | 1 of 18 (2.58) |
| W56H/A57G/H98S | 0.84 1.10 0.60 0.40 0.91 0.79 | 0 of 18 |
| L30W/Y31M/S38N/W56H/T59L | 0.64 0.92 0.80 1.11 0.41 0.77 | 0 of 18 |
| R34I/W56Q | -0.06 -0.21 0.24 -0.42 0.15 -0.09 | 0 of 18 |
| S25M/E61F | 0.76 0.69 0.46 0.76 0.57 0.74 | 0 of 18 |
| T59M/S62Q/R99M | 1.69 nd 2.75 nd 2.96 nd | 0 of 18 |
| R60H/Q96S | nd nd nd nd nd nd | 0 of 18 |
| S25F/Y31E | 1.43 0.73 1.48 1.53 0.35 1.09 | 1 of 18 (2.03) |
| W56G/S62Q | nd nd nd nd nd nd | 1 of 18 (0.58) |
| S33D/W56E/R99A | 1.62 1.50 1.37 1.38 1.88 1.31 | 1 of 18 (3.55) |
| S28R/R60V | nd nd nd nd nd nd | 0 of 18 |
| L30Q/S33D | nd nd nd nd nd nd | 0 of 18 |
| E61S/S62N/L100A | nd nd nd nd nd nd | 0 of 18 |

The 3 strongest on average among those seen in every replicate, once more:

changes	log10 Kd, replicates	signal with controls
R34I/W56Q	-0.06 -0.21 0.24 -0.42 0.15 -0.09	0 of 18
Q27P/R34N/N35P/W56Q/T59Q	0.07 -0.04 -0.05 -0.07 -0.12 -0.03	2 of 18 (2.38)
S25I/V29L/S38N/L100M	0.07 -0.10 0.06 -0.05 -0.22 0.16	1 of 18 (2.28)